What is called pKi is the Ki on a negative log10 scale, so that one unit is a factor of ten. The low end stands for a high Ki, the high end for a low Ki.

Protein sequences, listed by entry. Tags and fused reporters are not part of them. Lines headed by an entry give the natural chain unless they say otherwise; changes in a name come on top.
UniProt P41145: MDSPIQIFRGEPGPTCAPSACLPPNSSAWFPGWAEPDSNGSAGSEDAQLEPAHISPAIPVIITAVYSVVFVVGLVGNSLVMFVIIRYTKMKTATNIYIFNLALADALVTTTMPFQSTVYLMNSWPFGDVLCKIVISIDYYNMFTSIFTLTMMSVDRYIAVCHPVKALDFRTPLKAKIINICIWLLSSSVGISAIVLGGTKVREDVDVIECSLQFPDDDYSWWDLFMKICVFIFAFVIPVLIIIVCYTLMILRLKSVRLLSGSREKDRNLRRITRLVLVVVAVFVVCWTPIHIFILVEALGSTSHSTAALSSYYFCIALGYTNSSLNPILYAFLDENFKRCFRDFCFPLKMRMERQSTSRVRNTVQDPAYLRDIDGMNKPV

Here are results for six compounds from ChEMBL document CHEMBL1142779, “Synthesis and in vitro pharmacological studies of new C(2) modified salvinorin A analogues” (2005).

pKi: −log10 of the molar value.

The test deals with Kappa-type opioid receptor (Homo sapiens, UniProt P41145). The test can be described thus: Agonistic activity against human k-opioid receptor using [3H]diprenorphine.
Regarding `COC(=O)O[C@H]1C[C@@H](C(=O)OC)[C@]2(C)CC[C@H]3C(=O)O[C@H](c4ccoc4)C[C@]3(C)C2C1=O` (stereo partly specified), the pKi was less than 6.00.

As for `COC(=O)[C@@H]1C[C@H](OC(=O)C(F)(F)F)C(=O)C2[C@@]1(C)CC[C@H]1C(=O)O[C@H](c3ccoc3)C[C@]21C` (stereo partly specified), the pKi was less than 6.00.

As for `COC(=O)C1=CC(=O)C=C2[C@@]1(C)CC[C@H]1C(=O)O[C@H](c3ccoc3)C[C@]21C`, the negative-log Ki (pKi) is less than 6.00.

As to `COC(=O)[C@@H]1C[C@H](OC(=O)C2CC2)C(=O)C2[C@@]1(C)CC[C@H]1C(=O)O[C@H](c3ccoc3)C[C@]21C` (stereo partly specified), the pKi is less than 6.00.

`CCC(=O)O[C@H]1C[C@@H](C(=O)OC)[C@]2(C)CC[C@H]3C(=O)O[C@H](c4ccoc4)C[C@]3(C)C2C1=O` (stereo partly specified): the pKi was less than 6.00.

In turn, `COC(=O)[C@@H]1C[C@H](OC(=O)c2cccc(F)c2)C(=O)C2[C@@]1(C)CC[C@H]1C(=O)O[C@H](c3ccoc3)C[C@]21C` (stereo partly specified) had a pKi of less than 6.00.
